Data as given in ChEMBL document CHEMBL2346567, “Selective aminopeptidase-N (CD13) inhibitors with relevance to cancer chemotherapy” (Bioorg Med Chem, 2013).

Target: T1, Aminopeptidase N (Mus musculus, UniProt P97449)
T1 sequence (P97449 whole entry): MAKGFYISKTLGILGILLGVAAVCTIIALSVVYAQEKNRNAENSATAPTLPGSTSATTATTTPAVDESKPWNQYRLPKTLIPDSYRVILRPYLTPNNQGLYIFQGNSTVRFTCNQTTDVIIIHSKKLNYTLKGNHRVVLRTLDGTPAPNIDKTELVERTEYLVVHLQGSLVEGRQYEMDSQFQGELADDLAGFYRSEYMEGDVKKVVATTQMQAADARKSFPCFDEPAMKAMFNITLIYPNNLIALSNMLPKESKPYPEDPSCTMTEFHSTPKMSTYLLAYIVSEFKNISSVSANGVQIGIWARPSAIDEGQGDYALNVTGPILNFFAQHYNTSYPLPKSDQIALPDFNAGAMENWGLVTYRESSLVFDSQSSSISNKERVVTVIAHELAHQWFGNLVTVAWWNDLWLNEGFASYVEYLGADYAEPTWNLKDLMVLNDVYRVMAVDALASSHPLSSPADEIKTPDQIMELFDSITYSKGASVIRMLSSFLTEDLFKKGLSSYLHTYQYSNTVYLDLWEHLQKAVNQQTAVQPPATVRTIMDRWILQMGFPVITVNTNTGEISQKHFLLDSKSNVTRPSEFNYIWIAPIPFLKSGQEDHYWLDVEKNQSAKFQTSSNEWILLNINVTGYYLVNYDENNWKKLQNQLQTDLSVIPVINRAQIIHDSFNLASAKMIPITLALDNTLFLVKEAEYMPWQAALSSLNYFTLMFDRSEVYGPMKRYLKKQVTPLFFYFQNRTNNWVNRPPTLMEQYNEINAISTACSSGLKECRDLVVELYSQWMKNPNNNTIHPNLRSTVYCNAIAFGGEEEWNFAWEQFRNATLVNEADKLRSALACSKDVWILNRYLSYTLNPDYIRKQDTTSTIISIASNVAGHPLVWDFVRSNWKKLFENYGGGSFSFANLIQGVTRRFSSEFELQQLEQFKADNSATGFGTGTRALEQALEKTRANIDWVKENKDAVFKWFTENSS
Assay: Inhibition of mouse APN using L-leucine-p-nitroanilide as substrate measured every 10 mins for 2 hrs by spectrophotometric analysis

For NC1CCc2ccccc2CC1=O (stereo unspecified), the Ki was 2 µM.
